Laboratory results published in PubChem BioAssay AID488810 (Sanford-Burnham Center for Chemical Genomics, 2010).
Calls of active or inactive are those of the source.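 How the source made its calls: active means compounds with IC50 below 20 µM; inactive means the rest.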

Molecular target: Type-1 angiotensin II receptor (Homo sapiens) (UniProt P30556)
Test: AT1 receptor antagonists, beta-arrestin recruitment, SAR follow-up, selectivity assay for APJ antagonist project, cell-based, CHO-K1 PathHunter, luminescence (AID 488810);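 further: agonist challenge with angiotensin II at 50 nM final near its EC80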
Settings: CHO-K1 AGTR1 PathHunter beta-arrestin, antagonist mode

Q: Which IC50 does the source give for `Cc1ccnc(SCc2cc(=O)c(OC(=O)c3ccc(Cl)c([N+](=O)[O-])c3)co2)n1` here?
A: The IC50 was inactive: > 79 µM.
